Some of the results follow.

Assay in all cases: FOREST: bead pull-down of RNA structure library v1, barcode microarray; U1A/LIN28A: 20 mM HEPES pH 7.5, 80 mM KCl, 20 mM NaCl, 10% glycerol, 2 mM DTT, 0.1 ug/uL BSA, 4 C; BG4/CIRBP/DHX36: 10 mM Tris-HCl pH 7.5, 100 mM KCl (or LiCl),; high values mean tight binding
One experiment addresses U1A (Homo sapiens, UniProt P09012).
A further experiment concerns the target T1, LIN28A (human?, UniProt Q9H9Z2 1-209).
T1 sequence: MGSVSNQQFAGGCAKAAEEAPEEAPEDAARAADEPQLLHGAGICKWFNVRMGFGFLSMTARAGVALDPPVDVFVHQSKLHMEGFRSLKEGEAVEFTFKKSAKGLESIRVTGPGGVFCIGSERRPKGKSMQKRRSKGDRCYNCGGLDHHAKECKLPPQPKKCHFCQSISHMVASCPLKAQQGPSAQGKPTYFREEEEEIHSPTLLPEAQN

Another experiment has as its target T2, CIRBP (Homo sapiens, UniProt Q14011 1-172).
T2 sequence: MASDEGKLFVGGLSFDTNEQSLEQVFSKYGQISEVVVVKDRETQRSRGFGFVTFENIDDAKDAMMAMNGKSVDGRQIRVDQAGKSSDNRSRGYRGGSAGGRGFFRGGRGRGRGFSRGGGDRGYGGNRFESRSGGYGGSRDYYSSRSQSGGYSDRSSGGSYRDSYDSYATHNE

A further experiment has as its target T3, DHX36 (Homo sapiens, UniProt Q9H2U1 1-1008).
T3 sequence: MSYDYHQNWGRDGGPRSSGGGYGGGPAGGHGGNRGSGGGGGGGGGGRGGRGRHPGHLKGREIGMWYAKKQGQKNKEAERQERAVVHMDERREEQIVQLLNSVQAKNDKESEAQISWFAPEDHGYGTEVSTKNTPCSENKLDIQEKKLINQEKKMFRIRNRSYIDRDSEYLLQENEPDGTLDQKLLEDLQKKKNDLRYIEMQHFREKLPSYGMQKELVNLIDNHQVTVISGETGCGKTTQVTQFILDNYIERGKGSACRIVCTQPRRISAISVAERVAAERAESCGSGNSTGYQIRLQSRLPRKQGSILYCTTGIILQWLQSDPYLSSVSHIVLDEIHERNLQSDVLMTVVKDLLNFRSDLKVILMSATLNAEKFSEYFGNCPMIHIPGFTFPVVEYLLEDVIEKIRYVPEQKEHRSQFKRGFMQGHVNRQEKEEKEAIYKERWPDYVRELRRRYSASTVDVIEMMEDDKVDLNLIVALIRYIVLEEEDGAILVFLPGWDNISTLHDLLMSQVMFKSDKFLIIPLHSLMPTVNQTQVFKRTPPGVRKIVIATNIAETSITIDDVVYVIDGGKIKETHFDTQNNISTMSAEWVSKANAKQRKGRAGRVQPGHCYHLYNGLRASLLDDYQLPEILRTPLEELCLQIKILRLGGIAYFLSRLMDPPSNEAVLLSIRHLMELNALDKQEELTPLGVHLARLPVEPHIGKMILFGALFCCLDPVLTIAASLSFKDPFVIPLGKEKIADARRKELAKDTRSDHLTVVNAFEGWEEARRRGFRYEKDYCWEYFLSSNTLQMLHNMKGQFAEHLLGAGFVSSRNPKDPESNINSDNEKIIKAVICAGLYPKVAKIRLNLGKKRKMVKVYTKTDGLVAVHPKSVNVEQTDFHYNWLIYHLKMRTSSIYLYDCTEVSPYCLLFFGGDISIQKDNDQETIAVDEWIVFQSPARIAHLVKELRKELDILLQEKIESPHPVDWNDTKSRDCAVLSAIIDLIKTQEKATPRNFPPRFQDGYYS

B1: hsa-mir-493 (structured_RNA)
RNA: GGGACGGGCAAGUCAGCGUGAUAUUCUGGGUGUACGAAGUUUCAGCUUCAUUCAUUCGUUUGCACAUUCGGUGAAGCUGAAGCUUCGUGCAC
As for B1, the binding signal was 2.6 z-score in the experiment with U1A, 0.306 z-score with LIN28A, -0.13 z-score in the experiment with CIRBP and -0.063 z-score with DHX36.

B2: hsa-mir-2114 (structured_RNA)
RNA: GGGACUUUGAGCUUCCGAACAUGCACGCGGUGUACGAAGUUUCAGCCGGUCGGAUAAUCACAUGACGAGGCUGAAGCUUCGUGCAC
For B2, the binding signal with U1A is 2.6 z-score; with LIN28A, -0.0484 z-score; with CIRBP, -0.126 z-score; with DHX36, -0.656 z-score.

B3: hsa-mir-486-2 (structured_RNA)
RNA: GGGAAUUCAGUGGUGCGAGACUAGUACUGGUGUACGAAGUUUCAGCCCCGAGCUGGGCAGCAUGAAGGGCCUCGGGGCUGAAGCUUCGUGCAC
For the molecule B3, the binding signal amounted to 1.23 z-score with U1A, 0.416 z-score with LIN28A, 0.0376 z-score with CIRBP and 0.553 z-score with DHX36.

B4: hsa-mir-6134 (structured_RNA)
RNA: GGGAAAAUCGGCUCGCAUACGGCUUUCUGGUGUACGAAGUUUCAGCUGCAUAAAUGAAGCUGAAUGAGCUGAAGCUUCGUGCAC
As to B4, the binding signal with U1A was 1.25 z-score; with LIN28A, 0.644 z-score; with CIRBP it was 0.284 z-score; in the experiment with DHX36 it was 0.621 z-score.

B5: hsa-mir-134 (structured_RNA)
RNA: GGGAGCUGGAUCGAAGCACACGUAAAGAGGUGUACGAAGUUUCAGCGAGGGGCAUGCACUGUGUUCACCCUGGCUGAAGCUUCGUGCAC
For B5, the binding signal with U1A is 1.29 z-score; with LIN28A, -1.28 z-score; with CIRBP, -1.11 z-score; with DHX36, -0.0148 z-score.

B6: hsa-mir-622 (structured_RNA)
RNA: GGGAAGCGGCUUUGGCAUCCCAGUAUACGGUGUACGAAGUUUCAGCUUGAGGAGAGCACCACAGUGGUCAUCACACAGGCUGAAGCUUCGUGCAC
B6: the binding signal with U1A is 1.25 z-score; with LIN28A it was -0.0536 z-score; with CIRBP, 0.119 z-score; with DHX36, -0.529 z-score.

B7: hsa-mir-658 (structured_RNA)
RNA: GGGACAGCUCCACACGAGUUUCAUCGCCGGUGUACGAAGUUUCAGCCGCCAGCUCGCUGACAGCACGACUCAGGGCGGCUGAAGCUUCGUGCAC
B7: the binding signal in the experiment with U1A is 1.28 z-score; in the experiment with LIN28A, 0.447 z-score; with CIRBP, 0.278 z-score; with DHX36, -0.325 z-score.

B8: hsa-mir-4668 (structured_RNA)
RNA: GGGACCUCUGCGAGUCAUGAUAUACCGCGGUGUACGAAGUUUCAGCUGUCUUGUAGCCAGGAUAUUGUUUUAAAGAAGCUGAAGCUUCGUGCAC
For B8, the binding signal with U1A is 1.23 z-score; with LIN28A, 1.23 z-score; with CIRBP, -0.279 z-score; with DHX36, -0.549 z-score.

B9: hsa-mir-5004 (structured_RNA)
RNA: GGGAACGGAAAGAACGACGACGCAAACCGGUGUACGAAGUUUCAGCCACGAGAUUGGGUUGUGCAGAGGCUGACACUUGGCUGAAGCUUCGUGCAC
As to B9, the binding signal stood at 1.25 z-score with U1A, 2.54 z-score with LIN28A, 2.18 z-score in the experiment with CIRBP and 1.67 z-score in the experiment with DHX36.

B10: hsa-mir-550b-2 (structured_RNA)
RNA: GGGAACAGGACCAUCACGUCACACGAUCGGUGUACGAAGUUUCAGCAAGACACUAUCUGACAACAACAGGGCUCUUGCUGAAGCUUCGUGCAC
B10: the binding signal with U1A is 1.28 z-score; with LIN28A, 0.823 z-score; with CIRBP, 2.07 z-score; with DHX36, 0.414 z-score.

B11: hsa-mir-940 (structured_RNA)
RNA: GGGCAGGACACGUCCGUUUAUCAAGUCUGGUGUACGAAGUUUCAGCCAGCCCCGUGUGUUGAGGAAGGAAGGGCUGAAGCUUCGUGCAC
As to B11, the binding signal is 1.21 z-score with U1A, 0.548 z-score in the experiment with LIN28A, -0.861 z-score with CIRBP and 1.62 z-score with DHX36.

B12: hsa-mir-4481 (structured_RNA)
RNA: GGGACGGGAGUCCCGAUAGAACUUCAUUGGUGUACGAAGUUUCAGCGUUUUUUAAGAGGAAGGGAGACCUAAGCUAGCAGCUGAAGCUUCGUGCAC
In the case of B12, the binding signal with U1A was 1.25 z-score; with LIN28A, 2.15 z-score; with CIRBP, -3.52 z-score; with DHX36 it was -0.0716 z-score.

B13: hsa-mir-4524a (structured_RNA)
RNA: GGGACCGACGAGAGCAACUAUCCCAAGCGGUGUACGAAGUUUCAGCCUCACUGCAGAAUUAUUUUGAGGCUGAAGCUUCGUGCAC
Turning to B13, the binding signal in the experiment with U1A was 1.28 z-score; with LIN28A, 0.842 z-score; with CIRBP it was -1.24 z-score; in the experiment with DHX36, 0.0202 z-score.

B14: hsa-mir-4719 (structured_RNA)
RNA: GGGAAGUGCAGCUGCCUACGAUCUAUCGGGUGUACGAAGUUUCAGCGUGAUUACAUUAAAACUUAAAAUUUCACGCUGAAGCUUCGUGCAC
For B14, the binding signal in the experiment with U1A was 1.28 z-score; with LIN28A, 0.902 z-score; with CIRBP it was 1.02 z-score; in the experiment with DHX36 it was 0.354 z-score.

B15: hsa-mir-4430 (structured_RNA)
RNA: GGGACCGAGCGGGAUACUUAGCAAUAGUGGUGUACGAAGUUUCAGCGGAGAUCGUACCGCUGAAGCUUCGUGCAC
For B15, the binding signal in the experiment with U1A is 1.24 z-score; in the experiment with LIN28A, -0.0612 z-score; in the experiment with CIRBP it was 0.966 z-score; with DHX36, 0.698 z-score.

B16: G4_(UGGGU)8 (structured_RNA)
RNA: GGGAAUAGUCAAGCAGGGCGACACAUCUGGUGUACGAAGUUUCAGCUGGGUUGGGUUGGGUUGGGUUGGGUUGGGUUGGGUUGGGUGCUGAAGCUUCGUGCAC
For B16, the binding signal with U1A is 1.28 z-score; in the experiment with LIN28A, 1.77 z-score; with CIRBP it was 3.7 z-score; in the experiment with DHX36, 6.68 z-score.

B17: hsa-mir-4748 (structured_RNA)
RNA: GGGAGCUAGUGUCAUUGUUCCCGGCACUGGUGUACGAAGUUUCAGCUGCUGGUGCUAGAGAGGAAAGCAGCUGAAGCUUCGUGCAC
With B17, the binding signal in the experiment with U1A was 1.26 z-score; with LIN28A it was 0.704 z-score; with CIRBP, 0.181 z-score; in the experiment with DHX36 it was 1.26 z-score.

B18: hsa-mir-10b (structured_RNA)
RNA: GGGAAGUCACUACCCGCGCACAGAUACUGGUGUACGAAGUUUCAGCUUGUGUGGUAUCCGUAUAGUCACAGGCUGAAGCUUCGUGCAC
As to B18, the binding signal with U1A was 1.24 z-score; in the experiment with LIN28A, 0.155 z-score; with CIRBP, -0.537 z-score; in the experiment with DHX36, -0.845 z-score.

B19: hsa-mir-7-2 (structured_RNA)
RNA: GGGAACAAUGCGCACGCUGCACGUUCUAGGUGUACGAAGUUUCAGCGUUGUUGUCUUACUGCGCUCAACAACGCUGAAGCUUCGUGCAC
Regarding B19, the binding signal with U1A was 1.23 z-score; with LIN28A, -0.565 z-score; with CIRBP it was -0.923 z-score; with DHX36, -0.276 z-score.

B20: hsa-mir-3176 (structured_RNA)
RNA: GGGACGUUUUCACCGGCUAACAGGCAAGGGUGUACGAAGUUUCAGCCACUCCCGGGAUCCCCAGGGACGCUGAAGCUUCGUGCAC
Regarding B20, the binding signal with U1A is 1.24 z-score; in the experiment with LIN28A, -0.388 z-score; with CIRBP, -0.68 z-score; with DHX36 it was -0.477 z-score.

B21: hsa-mir-7111 (structured_RNA)
RNA: GGGAACUGACAAUCGGGCUUUUGUUAGGGGUGUACGAAGUUUCAGCGGCCAUCUGCUAUUCGUCCACCAACCUGACUUGAUCCGCUGAAGCUUCGUGCAC
Turning to B21, the binding signal with U1A was 1.24 z-score; in the experiment with LIN28A, -0.348 z-score; in the experiment with CIRBP, -0.231 z-score; with DHX36, -0.17 z-score.

B22: hsa-mir-6839 (structured_RNA)
RNA: GGGAACUUCAACCGGUCGCGGUAAUUCGGGUGUACGAAGUUUCAGCCCCAAGCAGGCUUUGUGUGAGCAGUGAGGCUAUUUAUUCACUUGGGUGCGAGCUCACACGAAGCCUGCUUGGGGCUGAAGCUUCGUGCAC
As for B22, the binding signal is 1.22 z-score with U1A, 2.25 z-score with LIN28A, -0.255 z-score in the experiment with CIRBP and 1.4 z-score with DHX36.

B23: hsa-mir-196b (structured_RNA)
RNA: GGGAAAUGGGGUUCCUUUGUACGCUAACGGUGUACGAAGUUUCAGCUUGGGAUCCACCUUUCUCUCGAGCUGAAGCUUCGUGCAC
For the molecule B23, the binding signal was 1.26 z-score in the experiment with U1A, -0.575 z-score with LIN28A, -0.0503 z-score in the experiment with CIRBP and -0.717 z-score with DHX36.
